Screens as filed in PubChem.
GIV Gai3 FP – inhibitors of GIV GBA-motif binding to rat Galpha-i3; percent of control (FP), % (concentration not given with the values); AID 1224905; Galpha-i3/FITC-GIV peptide fluorescence polarization, 90 min; stronger effect = lower value; scaled: aluminum fluoride 0%, vehicle 100%; 210,000 compounds, 0.42% hits; P08753;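 active means replicate mean at 85% of control or lower, very high polarization wells dropped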;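 further: wells of about 15 µL received 100 nL stock; the first replicate is given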
HCMV NEC inh – inhibitors of HCMV UL50-UL53 interaction, biochemical, HTRF; 0.15% of 190,000 active; normalized percent inhibition; inhibition, % (no concentration beside the values); in the data active = inhibition above about 27%, passing the limit was not always enough
Numbers stand for hits; 0 = inactive; - = not tested or not shown; ! = not active in a repeat. Many of the other results were omitted from the sample, so hits are more common in it than they were.

SMILES | GIV Gai3 FP | HCMV NEC inh
Cc1c(C#N)c2nc3ccccc3n2c(=O)/c1=C\Nn1cnnc1 | 0 | -
Cc1c(C#N)c2nc3ccccc3n2c(=O)/c1=C\Nc1cccc(NC(=O)c2ccccc2)c1 | -67 | -
Cn1ccc2cc(S(=O)(=O)N3CCN(C(=O)Nc4ccc(Cl)cc4)CC3)ccc21 | 0 | 0
CCNc1cc(N2CCCC2)c2noc3c2c1C(=O)c1ccccc1-3 | 0 | -
CCNc1cc(N2CCN(c3ccccc3)CC2)c2noc3c2c1C(=O)c1ccccc1-3 | 0 | 0
CCCCNc1cc(N2CCC(C)CC2)c2noc3c2c1C(=O)c1ccccc1-3 | 2.5 | 0
CN(C)CCNc1cc(N2CCOCC2)c2noc3c2c1C(=O)c1ccccc1-3 | -68 | 0
CN(C)CCNc1cc(N2CCN(C(=O)c3ccco3)CC2)c2noc3c2c1C(=O)c1ccccc1-3 | -31 | 0
CCNc1cc(N2CCC(C)CC2)c2noc3c2c1C(=O)c1ccccc1-3 | 0 | 0
CC(C)NCc1ccc(-c2ccc(F)cc2)o1 | 0 | 0
Cc1ccc2cc(CCNC(=O)CCc3ccccc3)c(=O)[nH]c2c1C | - | 0
CCOC(=O)c1ccc(Nc2nnc(-c3cc4ccc(N(CC)CC)cc4oc3=O)s2)cc1 | 0 | 0
CCN(CC)c1ccc2cc(-c3nnc(Nc4ccc(C)cc4)s3)c(=O)oc2c1 | -70 | -
CN(C)C1=Nc2ncccc2Oc2ccccc21 | 0 | -
CCOC(=O)N1CCN(C(=O)c2sc3nc(C)nc(N4CCC(C)CC4)c3c2C)CC1 | 0 | -
O=C1/C(=C/c2cccc3ccccc23)Nc2ccccc21 | 57 | 0
COC(=O)C1=C(C)NC(=O)/C1=C\c1cccc2ccccc12 | 0 | -
CC1=C(C(=O)Nc2ccc(Br)cn2)C(c2ccccc2C(F)(F)F)C2=C(CCCC2=O)N1 (configuration not stated) | 0 | 0
CCC1CCCCN1C(=O)CSc1nc2ncccc2o1 (configuration not stated) | 0 | 0
Cn1nc(C(C)(C)C)cc1NC(=O)Nc1ccc(Cl)cc1 | - | 0
Cn1nccc1NC(=O)Nc1ccc(Cl)cc1 | 0 | 66
Cc1ccc(NC2=CC(=O)c3sc(C)nc3C2=O)cc1 | - | 103!
Cc1ccc(Nc2nnc(C)c(=O)[nH]2)cc1 | 0 | 0
C=CC(=O)Nc1sc2c(c1C(=O)OCC)CCCC2 | - | 0
CCOC(=O)c1c(/N=C/C2C(=O)NC(=S)NC2=O)sc2c1CCCCC2 | -21 | -
SMILES | GIV Gai3 FP | HCMV NEC inh
Cc1[nH]c2[nH]n(-c3ccccc3)c(=O)c2c(=O)c1C | 0 | 0
O=C1C2CC=CCC2C(=O)N1c1cccc2ccccc12 (configuration not stated) | - | 0
Cn1c(=O)c2nc3ccc(N)cc3nc2n(C)c1=O | 19 | -
Cn1c(=O)c2nc3ccc(NC(=O)c4ccccc4)cc3nc2n(C)c1=O | 0 | -
CCOC(=O)c1nc2ccccc2nc1N1CCC2(C1)OCCO2 | 0 | 0
COC(=O)C1=NNC2C(=O)N(c3ccccc3F)C(=O)C12 (configuration not stated) | 0 | -
CC(=O)N1c2ccc(S(=O)(=O)N3CCCN(Cc4ccc(F)cc4)C3)cc2CC1C (configuration not stated) | 0 | 0
N#CCNC(=O)Cc1ccccc1 | - | 0
COc1ccc(CONC(=Nc2ccc(C)cc2)c2nonc2N)cc1 | 0 | -
N#CC(C#N)=Cc1ccc(-c2ccc3c(c2)COC3=O)o1 | 0 | 0
Nc1nnnn1N=Cc1ccc(-c2ccc3c(c2)COC3=O)o1 | 36 | -
Cc1ccc(C)c(CNc2ccc3[nH]ncc3c2)c1 | 0 | 0
COc1ccc(CNc2ccc3cn[nH]c3c2)c(OC)c1C | 0 | 52
CCOC(=O)c1c(C)c(S(=O)(=O)N2CCN(c3ncccn3)CC2)c(C)n1C | 0 | 0
N#CC1=C(N)SC(N)=C(C#N)C1c1ccncc1 | - | 0
N#CC1=C(N)SC(N)=C(C#N)C1c1ccccc1 | -0.3 | 0
COC(=O)c1ccccc1S(=O)(=O)N1CCC(C(=O)OCN2C(=O)c3ccccc3C2=O)CC1 | - | 0
CC1CCc2c(sc3[nH]c(=O)n4nc(-c5cccc(S(=O)(=O)N6CCOCC6)c5)nc4c23)C1 (configuration not stated) | - | 0
CN1C(=O)C(=Cc2cc(Br)ccc2OCc2ccccc2)C(=O)N(C)C1=O | 0 | 0
CCOc1cc(C=C2C(=O)NC(=S)NC2=O)ccc1OCc1ccccc1Cl | 0 | 0
O=C1NC(=O)C(=Cc2cc(Br)ccc2OCc2ccccc2)C(=O)N1 | 0 | 89
Cc1ccc(OCCOc2ccc(Br)cc2C=C2C(=O)NC(=S)NC2=O)cc1 | 0 | 0
O=C1NC(=S)NC(=O)C1=Cc1ccc(OCc2ccccc2)c(Br)c1 | 0 | 66
CCOC(=O)COc1ccc(Br)cc1C=C1C(=O)NC(=O)NC1=O | 0 | 57
COc1ccc(NC(=O)CNNc2ccc(S(N)(=O)=O)cc2)cc1 | - | 0
COc1ccc(CSc2nccc3c2ccn3CC(=O)Nc2ccc(OC)cc2)cc1 | 0 | -
